By UniProt entry, the sequences of proteins in these tests, tags left out. Residues count along the entry.
UniProt P20701, 26-1170 limits assumed: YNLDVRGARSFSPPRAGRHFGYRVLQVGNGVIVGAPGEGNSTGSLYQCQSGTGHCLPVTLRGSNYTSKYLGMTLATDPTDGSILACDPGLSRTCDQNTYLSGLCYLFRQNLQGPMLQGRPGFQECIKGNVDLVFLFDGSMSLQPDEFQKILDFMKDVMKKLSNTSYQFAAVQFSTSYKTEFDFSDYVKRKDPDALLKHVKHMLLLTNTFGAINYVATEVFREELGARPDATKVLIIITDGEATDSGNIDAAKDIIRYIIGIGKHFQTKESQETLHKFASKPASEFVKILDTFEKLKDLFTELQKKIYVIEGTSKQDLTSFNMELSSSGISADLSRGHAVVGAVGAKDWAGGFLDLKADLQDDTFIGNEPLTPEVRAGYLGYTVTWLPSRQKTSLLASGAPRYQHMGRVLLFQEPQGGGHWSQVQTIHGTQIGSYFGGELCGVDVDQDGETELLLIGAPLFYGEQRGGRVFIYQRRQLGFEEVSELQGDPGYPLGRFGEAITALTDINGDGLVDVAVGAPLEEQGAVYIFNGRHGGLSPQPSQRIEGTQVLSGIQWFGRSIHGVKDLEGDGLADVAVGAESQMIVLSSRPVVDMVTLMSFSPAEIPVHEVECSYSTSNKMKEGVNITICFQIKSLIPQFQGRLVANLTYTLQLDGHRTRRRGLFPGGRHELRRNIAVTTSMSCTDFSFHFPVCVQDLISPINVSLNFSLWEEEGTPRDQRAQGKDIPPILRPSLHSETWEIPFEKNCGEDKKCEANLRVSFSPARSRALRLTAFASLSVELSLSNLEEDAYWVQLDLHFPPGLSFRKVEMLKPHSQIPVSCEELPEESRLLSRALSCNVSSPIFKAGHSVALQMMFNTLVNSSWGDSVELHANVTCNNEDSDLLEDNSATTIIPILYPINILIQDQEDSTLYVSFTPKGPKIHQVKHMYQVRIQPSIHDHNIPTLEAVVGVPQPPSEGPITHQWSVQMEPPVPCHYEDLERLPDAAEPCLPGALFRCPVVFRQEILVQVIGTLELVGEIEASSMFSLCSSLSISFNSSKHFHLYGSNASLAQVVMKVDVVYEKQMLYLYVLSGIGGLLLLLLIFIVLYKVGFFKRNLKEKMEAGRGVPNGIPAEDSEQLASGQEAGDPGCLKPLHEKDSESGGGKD
UniProt P05107, 23-769 partner limits assumed: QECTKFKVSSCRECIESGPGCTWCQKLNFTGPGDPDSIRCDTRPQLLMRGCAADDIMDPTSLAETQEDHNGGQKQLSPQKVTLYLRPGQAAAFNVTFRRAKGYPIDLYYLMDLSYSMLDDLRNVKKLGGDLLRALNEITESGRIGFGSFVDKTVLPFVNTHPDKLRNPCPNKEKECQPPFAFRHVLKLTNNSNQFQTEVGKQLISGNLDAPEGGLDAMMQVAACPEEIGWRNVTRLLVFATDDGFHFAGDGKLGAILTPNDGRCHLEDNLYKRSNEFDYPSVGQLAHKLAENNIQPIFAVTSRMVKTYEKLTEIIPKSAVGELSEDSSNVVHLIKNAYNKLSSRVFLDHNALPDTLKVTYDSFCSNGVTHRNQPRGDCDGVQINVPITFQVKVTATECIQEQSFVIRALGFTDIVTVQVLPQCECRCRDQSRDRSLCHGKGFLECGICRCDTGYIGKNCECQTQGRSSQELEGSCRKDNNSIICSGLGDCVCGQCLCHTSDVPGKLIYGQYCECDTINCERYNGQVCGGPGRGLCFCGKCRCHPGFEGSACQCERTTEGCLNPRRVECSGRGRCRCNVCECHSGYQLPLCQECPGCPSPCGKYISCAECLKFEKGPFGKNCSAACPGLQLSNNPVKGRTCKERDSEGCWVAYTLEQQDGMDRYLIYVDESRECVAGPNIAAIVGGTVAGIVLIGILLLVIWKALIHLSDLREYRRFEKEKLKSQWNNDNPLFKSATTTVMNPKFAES

This assay deals with LFA-1 (CD18/CD11a) binding to ICAM-1 (Homo sapiens, UniProt P20701). Put plainly: LFA-1/Biotin-sICAM-1 AlphaScreen assay: inhibition of LFA-1 binding to ICAM-1. Particulars: read-out: Alphascreen IC50, 37° C. 90 minutes, highest compound concentration 1 μM. The text has this: Assay to Determine Inhibition of LFA-1 Binding to ICAM-1
This assay protocol is designed to study the direct antagonism, by a test compound, of the interaction of ICAM-1 with the Leukointegrin CD18/CD11a (LFA-1).
The LFA-1/Biotin-sICAM-1 molecular assay measures the ability of test compounds to inhibit binding of LFA-1 to Biotinylated-sICAM using AlphaScreen technology (Ref: Wilson, J, Rossi, C P, Carboni, S, Fremaux, C, Perrin, D, Soto, C, Kosco-Vilbois, M, and Scheer, A: A Homogeneous 384-Well High-Throughput Binding Assay for a TNF Receptor Using Alphascreen Technology. J Biomol Screen 2003; 8:522-532) that uses TS2/4(anti-LFA-1)-custom conjugated AlphaLisa acceptor beads and streptavidin-coated donor beads from PerkinElmer. The assay was performed in white OptiPlates-384 in a volume of 60 μL using assay buffer (Dulbecco's PBS containing calcium and magnesium, 2 mM MgCl2, 0.1 mM PMSF, 0.1% BSA, pH 7.1). To each well, Biotin-sICAM was added followed by purified LFA-1 (in buffer of 50 mM triethylamine, 150 mM NaCl, 1% beta octylglucoside, 2 mM MgCl2 neutralized to pH with 1M Tris-HCl, pH 7.5). For compound testing, compound was added in 5 uL to the above in 25 uL. LFA-1 and Biotin-sICAM-1 were used at concentrations that would yield a signal to background ratio of 8-10. The highest concentration of compound was 1 μM in 1% DMSO. Positive controls were wells without compound containing LFA-1, while blanks were wells without both compound and LFA-1. Plates were mixed and incubated at 37° C. for 90 minutes. This was followed by addition of 15 μL/well TS2/4-conjugated acceptor beads diluted in PBS containing 0.1% BSA for a final concentration of 10 μg/mL. The plates were mixed and incubated in the dark for 30 minutes at room temperature followed by addition of 15 μL/well streptavidin-coated donor beads diluted in PBS containing 0.1% BSA at a final concentration of 15 μg/mL. The plates were mixed and incubated in the dark for 60 minutes at room temperature and then read on an EnVision Multilabel Reader using AlphaScreen 384-well OptiPlate protocol.
`C[C@H](NC(=O)c1cnc2n1[C@](C)(Cc1ccc(C#N)cc1)C(=O)N2c1cc(Cl)c(F)c(Cl)c1)C(=O)NC1(c2ccc(-c3ccc(CO)nc3)cn2)CC1`: the IC50 stood at 1.3 nM.

`C[C@H](NC(=O)c1cnc2n1[C@](C)(Cc1ccc(OC(F)(F)F)cc1)C(=O)N2c1cc(Cl)c(F)c(Cl)c1)C(=O)NC1(c2ccc(-c3cn[nH]c3)nn2)CC1`: the IC50 was 0.77 nM.

With `C[C@@]1(Cc2ccc(OC(F)(F)F)cc2)C(=O)N(c2cc(Cl)c(F)c(Cl)c2)c2ncc(C(=O)NC3(C(=O)NC4(c5ccc(-c6cn[nH]c6)cn5)CC4)CC3)n21`, the IC50 is 1.1 nM.

For the compound `Cn1cc(-c2ccc(C3(NC(=O)C4(NC(=O)c5cnc6n5[C@](C)(Cc5ccc(OC(F)(F)F)cc5)C(=O)N6c5cc(Cl)c(F)c(Cl)c5)CC4)CC3)nn2)cn1`, the IC50 was 1.5 nM.

Regarding `C[C@@]1(Cc2ccc(C#N)cc2)C(=O)N(c2cc(Cl)c(F)c(Cl)c2)c2ncc(C(=O)NC3(C(=O)NC4(c5ccc(-c6cccnc6)cn5)CC4)CC3)n21`, the IC50 was 0.99 nM.

As to `C[C@@]1(Cc2ccc(C#N)cc2)C(=O)N(c2cc(Cl)c(F)c(Cl)c2)c2ncc(C(=O)NC3(C(=O)NC4(c5ncc(-c6ccc(CO)nc6)cn5)CC4)CC3)n21`, the IC50 is 1.4 nM.

For `Cn1cc(-c2ccc(C3(NC(=O)C4(NC(=O)c5cnc6n5[C@](C)(Cc5ccc(OC(F)(F)F)cc5)C(=O)N6c5cc(Cl)c(F)c(Cl)c5)CC4)CC3)nc2)cn1`, the IC50 is 1.3 nM.

With `C[C@@H](O)[C@H](NC(=O)c1cnc2n1[C@](C)(Cc1ccc(C#N)cc1)C(=O)N2c1cc(Cl)c(F)c(Cl)c1)C(=O)NC1(c2ccc(-c3cn[nH]c3)nn2)CC1`, the IC50 was 0.38 nM.

For `Cc1nn(C)cc1-c1ccc(C2(NC(=O)C3(NC(=O)c4cnc5n4[C@](C)(Cc4ccc(C#N)cc4)C(=O)N5c4cc(Cl)c(F)c(Cl)c4)CC3)CC2)cn1`, the IC50 was determined as 0.77 nM.

With `C[C@@]1(Cc2ccc(OC(F)(F)F)cc2)C(=O)N(c2cc(Cl)cc(Cl)c2)c2ncc(C(=O)NC3(C(=O)NC4(c5ccc(-c6ccc(=O)[nH]c6)cn5)CC4)CC3)n21`, the IC50 was 1.3 nM.

Regarding `Cc1ncc(-c2ccc(C3(NC(=O)C4(NC(=O)c5cnc6n5[C@](C)(Cc5ccc(C#N)cc5)C(=O)N6c5cc(Cl)c(F)c(Cl)c5)CC4)CC3)nc2)cn1`, the IC50 stood at 1.5 nM.

For `C[C@H](NC(=O)c1cnc2n1[C@](C)(Cc1ccc(C#N)cc1)C(=O)N2c1cc(Cl)c(F)c(Cl)c1)C(=O)NC1(c2ccc(-c3ccc(CO)cc3)cn2)CC1`, the IC50 is 1.9 nM.

Consider `C[C@H](NC(=O)c1cnc2n1[C@](C)(Cc1ccc(C#N)cc1)C(=O)N2c1cc(Cl)c(F)c(Cl)c1)C(=O)NC1(c2ccc(-c3cn[nH]c3)nn2)CC1`, for which the IC50 came to 0.53 nM.

In the case of `C[C@H](NC(=O)c1cnc2n1[C@](C)(Cc1ccc(OC(F)(F)F)cc1)C(=O)N2c1cc(Cl)c(F)c(Cl)c1)C(=O)N[C@H](C)c1ccc(-c2ccc(CO)nc2)cn1`, the IC50 is 0.86 nM.

In the case of `C[C@H](NC(=O)c1cnc2n1[C@](C)(Cc1ccc(C#N)cc1)C(=O)N2c1cc(Cl)c(F)c(Cl)c1)C(=O)NC1(c2ccc(-c3cnn(C)c3)nn2)CC1`, the IC50 is 1.2 nM.

For the compound `Cn1cc(-c2ccc(C3(NC(=O)C4(NC(=O)c5cnc6n5[C@](C)(Cc5ccc(C#N)cc5)C(=O)N6c5cc(Cl)c(F)c(Cl)c5)CC4)CC3)nc2)cn1`, the IC50 was 0.88 nM.

On to `C[C@@]1(Cc2ccc(OC(F)(F)F)cc2)C(=O)N(c2cc(Cl)c(F)c(Cl)c2)c2ncc(C(=O)NC3(C(=O)NC4(c5ccc(-c6ccc(CO)nc6)cn5)CC4)CC3)n21`, for which the IC50 worked out at 1.2 nM.

As for `C[C@@H](O)[C@H](NC(=O)c1cnc2n1[C@](C)(Cc1ccc(OC(F)(F)F)cc1)C(=O)N2c1cc(Cl)c(F)c(Cl)c1)C(=O)NC1(c2ccc(-c3cnn(C)c3)nn2)CC1`, the IC50 came to 1.4 nM.

For `C[C@@H](O)[C@H](NC(=O)c1cnc2n1[C@](C)(Cc1ccc(OC(F)(F)F)cc1)C(=O)N2c1cc(Cl)c(F)c(Cl)c1)C(=O)NC1(c2ccc(-c3cnn(C)c3)cn2)CC1`, the IC50 was determined as 1.2 nM.

In the case of `C[C@@]1(Cc2ccc(C#N)cc2)C(=O)N(c2cc(Cl)c(F)c(Cl)c2)c2ncc(C(=O)NC3(C(=O)NC4(c5ccc(-c6ccc(C(N)=O)cc6)cn5)CC4)CC3)n21`, the IC50 is 0.83 nM.

As to `C[C@@]1(Cc2ccc(C#N)cc2)C(=O)N(c2cc(Cl)c(F)c(Cl)c2)c2ncc(C(=O)NC3(C(=O)NC4(c5ccc(-c6ccc(CO)nc6)nc5)CC4)CC3)n21`, the IC50 came out at 0.97 nM.

`Cc1nn(C)cc1-c1ccc(C2(NC(=O)[C@@H](NC(=O)c3cnc4n3[C@](C)(Cc3ccc(C#N)cc3)C(=O)N4c3cc(Cl)c(F)c(Cl)c3)[C@@H](C)O)CC2)cn1`: the IC50 was found to be 1.2 nM.

Turning to `C[C@H](NC(=O)c1cnc2n1[C@](C)(Cc1ccc(C#N)cc1)C(=O)N2c1cc(Cl)c(F)c(Cl)c1)C(=O)NC1(c2ccc(-c3ccc(CO)cc3)nn2)CC1`, the IC50 came out at 1.1 nM.

On to `C[C@@]1(Cc2ccc(OC(F)(F)F)cc2)C(=O)N(c2cc(Cl)c(F)c(Cl)c2)c2ncc(C(=O)NC3(C(=O)NC4(c5ccc(-c6ccc(CO)nc6)nc5)CC4)CC3)n21`, for which the IC50 is 0.58 nM.

On to `C[C@@H](NC(=O)C1(NC(=O)c2cnc3n2[C@](C)(Cc2ccc(C#N)cc2)C(=O)N3c2cc(Cl)c(F)c(Cl)c2)CC1)c1ccc(-c2cn[nH]c2)cn1`, for which the IC50 was 0.61 nM.

With `Cn1cc(-c2ccc(C3(NC(=O)[C@H](CO)NC(=O)c4cnc5n4[C@](C)(Cc4ccc(OC(F)(F)F)cc4)C(=O)N5c4cc(Cl)c(F)c(Cl)c4)CC3)nc2)cn1`, the IC50 was 0.93 nM.

Take `C[C@H](NC(=O)c1cnc2n1[C@](C)(Cc1ccc(OC(F)(F)F)cc1)C(=O)N2c1cc(Cl)c(F)c(Cl)c1)C(=O)NC1(c2ccc(-c3ccc(CO)nc3)cn2)CC1`: the IC50 worked out at 1.3 nM.

Turning to `C[C@@]1(Cc2ccc(C#N)cc2)C(=O)N(c2cc(Cl)c(F)c(Cl)c2)c2ncc(C(=O)NC3(C(=O)NC4(c5ccc(-c6ccc(CO)nc6)cn5)CC4)CC3)n21`, the IC50 worked out at 0.62 nM.

Consider `Cc1nn(C)cc1-c1ccc([C@@H](C)NC(=O)C2(NC(=O)c3cnc4n3[C@](C)(Cc3ccc(C#N)cc3)C(=O)N4c3cc(Cl)c(F)c(Cl)c3)CC2)cn1`, for which the IC50 was 0.51 nM.

With `C[C@@H](O)[C@H](NC(=O)c1cnc2n1[C@](C)(Cc1ccc(OC(F)(F)F)cc1)C(=O)N2c1cc(Cl)c(F)c(Cl)c1)C(=O)NC1(c2ccc(-c3cn[nH]c3)nn2)CC1`, the IC50 worked out at 1.2 nM.

Consider `C[C@@]1(Cc2ccc(C#N)cc2)C(=O)N(c2cc(Cl)c(F)c(Cl)c2)c2ncc(C(=O)NC3(C(=O)NC4(c5ccc(-c6ccc(=O)[nH]c6)cn5)CC4)CC3)n21`, for which the IC50 amounted to 0.68 nM.

On to `C[C@@]1(Cc2ccc(OC(F)(F)F)cc2)C(=O)N(c2cc(Cl)c(F)c(Cl)c2)c2ncc(C(=O)NC3(C(=O)NC4(c5ncc(-c6ccc(CO)cc6)cn5)CC4)CC3)n21`, for which the IC50 was 1.8 nM.

`C[C@@]1(Cc2ccc(C#N)cc2)C(=O)N(c2cc(Cl)c(F)c(Cl)c2)c2ncc(C(=O)NC3(C(=O)NC4(c5ccc(-c6ccc(S(N)(=O)=O)cc6)cn5)CC4)CC3)n21`: the IC50 is 0.8 nM.

Consider `C[C@@H](O)[C@H](NC(=O)c1cnc2n1[C@](C)(Cc1ccc(C#N)cc1)C(=O)N2c1cc(Cl)c(F)c(Cl)c1)C(=O)NC1(c2ccc(-c3cnn(C)c3)nn2)CC1`, for which the IC50 was determined as 0.44 nM.

As for `C[C@H](NC(=O)c1cnc2n1[C@](C)(Cc1ccc(C#N)cc1)C(=O)N2c1cc(Cl)c(F)c(Cl)c1)C(=O)N[C@H](C)c1ccc(-c2ccc(CO)nc2)cn1`, the IC50 stood at 0.58 nM.

Take `C[C@H](NC(=O)c1cnc2n1[C@](C)(Cc1ccc(OC(F)(F)F)cc1)C(=O)N2c1cc(Cl)c(F)c(Cl)c1)C(=O)NC1(c2ccc(-c3cnn(C)c3)cn2)CC1`: the IC50 stood at 2.9 nM.
